Source: paper PMC5751205, “Rapid Non-Enzymatic Glycation of the Insulin Receptor under Hyperglycemic Conditions Inhibits Insulin Binding In Vitro: Implications for Insulin Resistance” (International Journal of Molecular Sciences, 2017)
Entries after “also recorded” stand apart in the source; their conditions may differ.

By UniProt entry, the sequences of proteins in these tests, tags left out. Residues count along the entry.
UniProt P01308, 25-54: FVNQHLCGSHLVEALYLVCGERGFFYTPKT
UniProt P01308, 90-110: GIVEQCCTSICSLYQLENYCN

Legend:
[1] = target: T1, insulin-HRP (Homo sapiens, UniProt P01308); assay: Insulin-HRP binding to IR peptides (ELISA plate, ABTS read-out); conditions: Ins-HRP at 10 nM, IR peptide in the absence of glycation
Protocol: (§1) Each peptide was held constant at 0.1 mg/mL in pH 7.4 phosphate-buffered saline, and 100 μL aliquots were pipetted into rows of a Costar high-binding ELISA plate and incubated for an hour. The plate was washed 3× with 0.1% Tween 20 (Sigma-Aldrich) in 0.05 M phosphate buffered saline (PBS). Two hundred µL 2% polyvinyl alcohol in PBS were added to each well and incubated 1 h. The plates were then washed 3× again with 0.1% Tween 20. A solution of insulin conjugated to horse-radish peroxidase (HRP), 0.83 µg in 1.0 mL PBS, was made and serially diluted with PBS by thirds, ten times. These serial dilutions were added to the plate wells, incubated for an hour, and then washed 3× as before. Finally, 100 µL of stock ABTS [2,2′-azino-bis(3-ethylbenzothiazoline-6-sulphonic acid)] (Millipore, Burlington, MA, USA) was added to each well, incubated for thirty minutes, and the plate was then read on a SpectraMax Plus scanning microplate spectrophotometer at 405 nm. Controls wells lacking peptide but with PVA, INS-HRP and ABTS measured non-specific binding that was subtracted from the absorbance values of the rest of the wells. All experiments were run in triplicate and the averages of the corrected absorbances were then plotted against the concentration of the INS–HRP for each peptide to yield binding curves. Because binding curves are calculated by plotting differences, it was not possible to incorporate error bars into these curves.

[2] = target: T1, insulin-HRP; assay: Effect of glycation on insulin-HRP binding to IR peptides; conditions: for Ins-HRP Binding Inhibition (Glycated): change in Ins-HRP binding at 10 nM after exposure of the peptide to glycating conditions (six days at 20 mM glucose); for Change of INS-HRP binding to the peptide after glycation: 6-day exposure to 20 mM glucose, triplicate, averaged
Protocol: Insulin receptor peptides (Figure 1) were synthesized by RS Synthesis (Louisville, KY, USA) to at least 95% purity by high pressure liquid chromatography (HPLC) and mass spectrometry. Peptides or recombinant human insulin (rHu) (Lilly, Indianapolis, IN, USA) were dissolved in glucose-free, phenol-red-free, Dulbecco’s modified Eagle growth medium (DMEM) to 1 mg/mL. Stock 2.0 M D-glucose (Sigma-Aldrich, St. Louis, MO, USA) solutions were also made in DMEM. The peptide and glucose stocks were combined to yield final reaction solutions with peptides at 0.1 mg/mL and glucose at […]. Combinations were incubated at 36–38 °C for 1–6 days. Reactions were stopped and solutions were stored by freezing at −20 °C. Glycated peptides were desalted by centrifugal filtration through Ultrafree-MC 5 kda or Ultracel 3 kda filter units. Resulting retentate was resuspended in low ionic strength saline immediately before performing mass spectrometry.
as §1
The same technique just described in Section 4.3 was used to measure the effect of glycation on INS-HRP binding to IR peptides as above with one change: IR peptides were serially diluted instead of the INS-HRP, which was held constant. This methodological modification was made in order to reduce the amount of IR peptide required to obtain results. As in Section 4.3, each experiment was run in triplicate and the results averaged.

[3] = glucose binding non-covalently to the peptide; ref [41],[42]; cited from earlier work
Protocol: Table 1 Table summarizing experiments to identify motifs determining insulin-receptor (IR) peptide glycation and whether glycation of IR peptides results in inhibition of insulin binding to these peptides. Specifically, this table provides binding constants glucose binding non-covalently to various insulin receptor (IR) peptides; glycation of the same IR peptides at 20 mM glucose for six days; the | column: Glucose Binding Kd (mM)

**Q.** Which results are given for `CC(C)C[C@H](NC(=O)[C@H](CS)NC(=O)[C@H](CCC(=O)O)NC(=O)[C@H](CO)NC(=O)[C@H](Cc1c[nH]cn1)NC(=O)[C@H](CS)NC(=O)[C@@H](N)CS)C(=O)NCC(=O)N[C@@H](CC(N)=O)C(=O)N[C@@H](CS)C(=O)N[C@@H](CO)C(=O)N[C@@H](CCC(N)=O)C(=O)N1CCC[C@H]1C(=O)N[C@@H](CC(=O)O)C(=O)N[C@@H](CC(=O)O)C(=O)O` [233-248]?
**A.** 10 nM Ins-HRP Binding (Native) [1]: no; Ins-HRP Binding Inhibition (Glycated) [2]: no; Kd [3]: 46 mM

**Q.** Which results are given for `CC(C)C[C@H](NC(=O)[C@H](CC(=O)O)NC(=O)[C@H](CCC(N)=O)NC(=O)[C@H](CS)NC(=O)[C@H](Cc1ccccc1)NC(=O)[C@@H](N)CO)C(=O)N[C@@H](Cc1c[nH]cn1)C(=O)N[C@@H](Cc1c[nH]cn1)C(=O)N[C@@H](CCCCN)C(=O)N[C@@H](CS)C(=O)N[C@@H](CCCCN)C(=O)N[C@@H](CC(N)=O)C(=O)N[C@@H](CO)C(=O)N[C@@H](CCCNC(=N)N)C(=O)N[C@@H](CCCNC(=N)N)C(=O)N[C@@H](CCC(N)=O)C(=O)NCC(=O)O` [284–300]?
**A.** 10 nM Ins-HRP Binding (Native) [1]: YES; Insulin-HRP binding after incubation of the peptide in 200 mM glucose ([2]; 200 mM glucose, six days): shifted the curve dramatically to the right; Change of INS-HRP binding to the peptide after glycation ([2]; listed as IR 284–298): did not alter the affinity; also recorded: negligible effect; Ins-HRP Binding Inhibition (Glycated) [2]: INSIGNIF.

**Q.** Which results are given for `CC[C@H](C)[C@H](NC(=O)[C@H](CCCCN)NC(=O)[C@H](CC(C)C)NC(=O)[C@H](Cc1ccc(O)cc1)NC(=O)CNC(=O)[C@H](CO)NC(=O)[C@@H](NC(=O)[C@@H](N)CCC(=O)O)[C@@H](C)CC)C(=O)N[C@@H](CCCNC(=N)N)C(=O)N[C@@H](CCCNC(=N)N)C(=O)N[C@@H](CO)C(=O)N[C@@H](Cc1ccc(O)cc1)C(=O)N[C@@H](C)C(=O)N[C@@H](CC(C)C)C(=O)N[C@H](C(=O)N[C@@H](CO)C(=O)O)C(C)C` [390-405]?
**A.** 10 nM Ins-HRP Binding (Native) [1]: no; Ins-HRP Binding Inhibition (Glycated) [2]: no; Kd [3]: 30 mM

**Q.** What does the source list for `CC(C)C[C@H](NC(=O)[C@H](C)NC(=O)[C@H](Cc1ccc(O)cc1)NC(=O)[C@H](Cc1ccccc1)NC(=O)[C@H](CO)NC(=O)[C@@H](N)Cc1ccc(O)cc1)C(=O)N[C@@H](CC(=O)O)C(=O)N[C@@H](CC(N)=O)C(=O)N[C@@H](CCC(N)=O)C(=O)N[C@@H](CC(N)=O)C(=O)N[C@@H](CC(C)C)C(=O)N[C@@H](CCCNC(=N)N)C(=O)N[C@@H](CCC(N)=O)C(=O)N[C@@H](CC(C)C)C(=O)N[C@@H](Cc1c[nH]c2ccccc12)C(=O)N[C@@H](CC(=O)O)C(=O)N[C@@H](Cc1c[nH]c2ccccc12)C(=O)N[C@@H](CO)C(=O)N[C@@H](CCCCN)C(=O)N[C@@H](Cc1c[nH]cn1)C(=O)O` [425-444]?
**A.** 10 nM Ins-HRP Binding (Native) [1]: no; Ins-HRP Binding Inhibition (Glycated) [2]: no

**Q.** Which “10 nM Ins-HRP Binding (Native)” value [1] does the source give for `CC(C)C[C@H](NC(=O)CNC(=O)[C@H](CCCCN)NC(=O)[C@H](CC(C)C)NC(=O)[C@H](CS)NC(=O)[C@H](Cc1ccc(O)cc1)NC(=O)[C@H](CC(=O)O)NC(=O)[C@H](CC(C)C)NC(=O)[C@H](CCC(=O)O)NC(=O)[C@H](Cc1ccccc1)NC(=O)[C@H](CC(C)C)NC(=O)[C@H](CCC(=O)O)NC(=O)[C@H](CO)NC(=O)[C@H](CC(=O)O)NC(=O)[C@H](CCC(=O)O)NC(=O)[C@H](C)NC(=O)[C@H](CCC(N)=O)NC(=O)[C@H](CCCNC(=N)N)NC(=O)[C@@H](N)CCC(=O)O)C(=O)N[C@@H](CCCCN)C(=O)O` [660-679] here?
**A.** no

**Q.** What about the “Ins-HRP Binding Inhibition (Glycated)” value [2] of the same molecule?
**A.** no

**Q.** And the Kd [3]?
**A.** 70 mM

**Q.** For `CC(C)C[C@H](NC(=O)CNC(=O)[C@H](CCCNC(=N)N)NC(=O)[C@H](CC(C)C)NC(=O)[C@H](CCCNC(=N)N)NC(=O)[C@H](CS)NC(=O)CNC(=O)[C@H](CCCNC(=N)N)NC(=O)[C@H](CCC(=O)O)NC(=O)[C@H](CC(C)C)NC(=O)[C@H](C)NC(=O)[C@H](Cc1ccccc1)NC(=O)[C@H](Cc1c[nH]cn1)NC(=O)[C@H](CCCCN)NC(=O)[C@H](CCCNC(=N)N)NC(=O)[C@H](CO)NC(=O)[C@@H](NC(=O)[C@H](CS)NC(=O)[C@H](CC(C)C)NC(=O)[C@@H](N)Cc1c[nH]cn1)C(C)C)C(=O)O` [897-916], which “10 nM Ins-HRP Binding (Native)” value [1] is on record?
**A.** YES

**Q.** What about the “Change of INS-HRP binding to the peptide after glycation” value [2] of the same molecule?
**A.** very significant loss of INS-HRP binding

**Q.** What about the “Ins-HRP Binding Inhibition (Glycated)” value [2] of the same molecule?
**A.** YES

**Q.** And the Kd [3]?
**A.** 14 mM
